One substance from patent US20250051703A1, “EGG OPENER, EX OVO TUMOR XENOGRAFT METHOD, THERAPEUTIC COMPOUND ASSAY, THERAPEUTIC COMPOUND TESTING METHOD VIA EX OVO QUAIL EGG XENOGRAFT ASSAY” (CHILDREN'S CANCER THERAPY DEVELOPMENT INSTITUTE, priority 2021, published 2025) can be followed below.

This test has as its system BT474 human breast cancer cell line. In words: BT474 xenograft CAM assay, radiance. The class given is in vivo. The following applies: FIGS. 18C and 18D.

In the case of trastuzumab, the “dose-response in BT474 xenograft CAM assay” value was “dose-response relationship”.
